According to US10202388B2, “Fused-ring compounds, pharmaceutical composition and uses thereof” (SHANGHAI DE NOVO PHARMATECH CO., LTD., priority 2015, dated 2019):
Like-named read-outs stand apart in the source and are kept apart here.

Amino acid sequences for entries named in this document (tags omitted).
UniProt P14902, whole entry: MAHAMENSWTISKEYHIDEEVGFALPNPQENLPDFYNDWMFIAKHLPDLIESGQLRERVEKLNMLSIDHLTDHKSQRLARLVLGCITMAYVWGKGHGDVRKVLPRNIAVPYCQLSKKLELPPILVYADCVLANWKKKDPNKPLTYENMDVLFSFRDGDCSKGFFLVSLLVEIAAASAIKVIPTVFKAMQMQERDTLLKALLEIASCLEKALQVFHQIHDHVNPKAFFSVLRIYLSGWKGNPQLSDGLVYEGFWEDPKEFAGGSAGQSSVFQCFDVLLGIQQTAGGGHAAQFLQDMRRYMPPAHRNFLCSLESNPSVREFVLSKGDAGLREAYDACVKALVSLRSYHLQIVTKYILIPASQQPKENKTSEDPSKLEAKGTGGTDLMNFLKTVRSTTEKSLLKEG

Target: HeLa cell IDO1 (Homo sapiens (Human), UniProt P14902)
Assay: HeLa cell based IDO1 inhibition assay (kynurenine readout, IFN-γ induced)
[1] = read-out: HeLa cell IDO1 IC50, HeLa cells

SMILES	IC50 [1] [µM]	IC50 (read-out: HeLa cell IDO1 IC50, HeLa cells, tested form: HCl) [µM]
O=S(=O)(Cc1ccccc1)NC12CC3CC(C1)C(C(O)CC1c4ccccc4-c4cncn41)C(C3)C2 (stereo not drawn)	0.1 to 0.5	
Cc1ccc(S(=O)(=O)NC23CC4CC(C2)C(C(O)CC2c5ccccc5-c5cncn52)C(C4)C3)cc1 (stereo not drawn)		< 0.1
NS(=O)(=O)NCCCOC1C2CC3CC1CC(C(O)CC1c4c(F)cccc4-c4cncn41)(C3)C2 (single isomer, unassigned) [132A]	0.1 to 0.5	
CC(=O)Nc1ccc(S(=O)(=O)NC2C3CC4CC2CC(C(O)CC2c5c(F)cccc5-c5cncn52)(C4)C3)cc1 (stereo not drawn)	0.1 to 0.5	
NS(=O)(=O)NCCCOC1C2CC3CC1CC(C(O)CC1c4c(F)cccc4-c4cncn41)(C3)C2 (single isomer, unassigned) [132B]	1 to 10	

Continued, values first:

IC50 [1] [µM]	IC50 (read-out: HeLa cell IDO1 IC50, HeLa cells, tested form: HCl) [µM]	SMILES
0.1 to 0.5		CC1(O)C2CC3CC1CC(C(O)CC1c4c(F)cccc4-c4cncn41)(C3)C2 (single isomer, unassigned) [24B]
0.1 to 0.5		N#Cc1ccc(NC(=O)NC23CC4CC(C2)C(C(O)CC2c5ccccc5-c5cncn52)C(C4)C3)cc1 (single isomer, unassigned) [161A]
0.5 to 1		N#Cc1ccc(NC(=O)NC23CC4CC(C2)C(C(O)CC2c5ccccc5-c5cncn52)C(C4)C3)cc1 (single isomer, unassigned) [161B]
< 0.1		CC1(O)C2CC3CC1CC(C(O)CC1c4c(F)cccc4-c4cncn41)(C3)C2 (single isomer, unassigned) [24A]
